Measurements as given in ChEMBL document CHEMBL5375988, “AcGlcAs: A Novel P53-Targeting Arsenical with Potent Cellular Uptake and Cancer Cell Selectivity” (J Med Chem, 2023).
Active and inactive are the calls of the source. The rule behind the calls is not given here.

Protein sequences, listed by entry. Tags and fused reporters are not part of them. Lines headed by an entry give the natural chain unless they say otherwise; changes in a name come on top.
UniProt P10276, whole entry, looked up: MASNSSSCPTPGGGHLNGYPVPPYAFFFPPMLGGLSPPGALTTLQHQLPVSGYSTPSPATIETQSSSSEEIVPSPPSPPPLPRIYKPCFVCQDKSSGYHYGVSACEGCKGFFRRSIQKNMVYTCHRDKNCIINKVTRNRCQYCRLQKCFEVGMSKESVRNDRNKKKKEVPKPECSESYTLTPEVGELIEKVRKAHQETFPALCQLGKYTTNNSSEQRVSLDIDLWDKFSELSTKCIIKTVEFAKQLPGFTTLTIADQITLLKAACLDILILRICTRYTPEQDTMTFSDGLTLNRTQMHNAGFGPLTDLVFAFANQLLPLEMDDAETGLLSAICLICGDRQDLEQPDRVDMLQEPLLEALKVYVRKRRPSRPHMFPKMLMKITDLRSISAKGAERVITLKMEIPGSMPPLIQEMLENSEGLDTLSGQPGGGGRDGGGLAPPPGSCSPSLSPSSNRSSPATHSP
UniProt P29590: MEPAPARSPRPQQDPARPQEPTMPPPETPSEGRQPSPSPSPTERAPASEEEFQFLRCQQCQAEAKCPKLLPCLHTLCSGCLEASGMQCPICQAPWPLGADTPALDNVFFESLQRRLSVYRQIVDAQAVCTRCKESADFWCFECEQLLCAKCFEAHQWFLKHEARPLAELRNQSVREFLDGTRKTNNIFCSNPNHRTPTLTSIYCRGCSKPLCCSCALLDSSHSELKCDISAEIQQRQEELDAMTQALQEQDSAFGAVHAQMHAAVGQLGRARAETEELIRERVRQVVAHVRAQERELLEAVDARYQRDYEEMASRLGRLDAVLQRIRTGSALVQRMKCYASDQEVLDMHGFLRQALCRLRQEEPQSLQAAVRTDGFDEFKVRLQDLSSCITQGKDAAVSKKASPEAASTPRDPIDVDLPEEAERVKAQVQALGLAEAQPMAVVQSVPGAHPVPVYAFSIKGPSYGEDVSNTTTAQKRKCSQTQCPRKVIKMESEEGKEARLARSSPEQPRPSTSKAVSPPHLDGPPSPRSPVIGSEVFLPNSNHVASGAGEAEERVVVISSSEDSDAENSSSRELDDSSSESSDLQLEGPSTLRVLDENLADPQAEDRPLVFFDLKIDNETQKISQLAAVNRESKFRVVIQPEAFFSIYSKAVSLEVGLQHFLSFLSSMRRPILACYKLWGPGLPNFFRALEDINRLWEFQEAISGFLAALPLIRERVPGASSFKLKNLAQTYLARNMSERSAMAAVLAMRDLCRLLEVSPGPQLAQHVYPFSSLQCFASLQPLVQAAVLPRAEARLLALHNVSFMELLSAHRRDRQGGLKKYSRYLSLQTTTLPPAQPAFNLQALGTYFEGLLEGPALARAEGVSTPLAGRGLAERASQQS

Experiments:
[1] = biological target: T1, PML-RARalpha (Homo sapiens) (UniProt P10276+P29590); experiment: Induction of Flag-tagged PML/RARalpha (unknown origin) degradation overexpressed in HEK293T cells at 0.4 to 2 uM incubated for 16 hrs by Western blot analysis; details: dose 0.4-2 µM
[2] = biological target: T1, PML-RARalpha (Homo sapiens); experiment: Induction of Flag-tagged PML/RARalpha (unknown origin) degradation overexpressed in HEK293T cells at 0.06 to 0.3 uM incubated for 16 hrs by Western blot analysis; details: dose 0.06-0.3 µM

Row | Compound | Activity [1] | Activity [2]
1 | I[As](I)I | Active | 
2 | O=[As]c1ccccc1 (configuration not stated) |  | Active
